Assays:
[1] = target: T1, Kappa-type opioid receptor (Homo sapiens, UniProt P41145); test: Agonist activity at human kappa opioid receptor expressed in CHO membrane by [35S]GTP-gamma-S binding assay
[2] = target: T2, Delta-type opioid receptor (Homo sapiens, UniProt P41143); test: Displacement of [3H]DPDPE from cloned delta opioid receptor expressed in CHO cell membrane
[3] = target: T2, Delta-type opioid receptor; test: Agonist activity at human delta opioid receptor expressed in CHO membrane by [35S]GTPgammaS binding assay
[4] = target: T1, Kappa-type opioid receptor; test: Displacement of [3H]U-69593 from cloned kappa opioid receptor expressed in CHO cell membrane

By UniProt entry, the sequences of proteins in these tests, tags left out.
UniProt P41145, whole entry: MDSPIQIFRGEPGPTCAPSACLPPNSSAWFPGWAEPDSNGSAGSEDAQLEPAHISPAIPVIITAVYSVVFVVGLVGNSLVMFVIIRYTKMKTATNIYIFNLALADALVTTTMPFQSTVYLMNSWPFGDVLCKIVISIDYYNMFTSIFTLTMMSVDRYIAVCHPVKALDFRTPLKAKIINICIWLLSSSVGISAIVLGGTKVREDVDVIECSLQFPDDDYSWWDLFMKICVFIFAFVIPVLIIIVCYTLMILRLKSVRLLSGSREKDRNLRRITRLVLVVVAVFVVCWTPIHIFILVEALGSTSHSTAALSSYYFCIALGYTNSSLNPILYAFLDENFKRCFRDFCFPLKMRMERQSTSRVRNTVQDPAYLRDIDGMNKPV
UniProt P41143, whole entry: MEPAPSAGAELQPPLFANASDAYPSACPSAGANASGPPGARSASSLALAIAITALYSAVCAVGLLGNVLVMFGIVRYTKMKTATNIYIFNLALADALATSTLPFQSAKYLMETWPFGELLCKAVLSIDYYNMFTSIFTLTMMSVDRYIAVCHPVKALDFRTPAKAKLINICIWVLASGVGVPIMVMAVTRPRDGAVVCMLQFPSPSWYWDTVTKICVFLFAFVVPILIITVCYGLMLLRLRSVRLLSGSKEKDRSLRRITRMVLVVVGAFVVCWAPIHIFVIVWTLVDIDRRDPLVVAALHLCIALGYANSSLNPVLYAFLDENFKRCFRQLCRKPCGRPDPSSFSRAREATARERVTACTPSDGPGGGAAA

Work on `CO[C@]12CC(O)[C@@]3(C[C@@H]1[C@H](C)O)[C@H]1Cc4ccc(O)c5c4[C@@]3(CCN1C)[C@H]2O5` (stereo partly specified) yielded an EC50 [1] of 520 nM, a Ki [2] of 110 nM and an EC50 [3] of 210 nM. The Ki [4] was 170 nM.

For `CO[C@]12C(O)C[C@@]3(C[C@@H]1[C@@H](C)O)[C@H]1Cc4ccc(O)c5c4[C@@]3(CCN1C)[C@H]2O5` (stereo partly specified), the EC50 [1] was 240 nM, the Ki [2] was 25 nM and the EC50 [3] was 88 nM. The Ki [4] was 26 nM.

Compound `CO[C@]12C(O)C[C@@]3(C[C@@H]1[C@H](C)O)[C@H]1Cc4ccc(O)c5c4[C@@]3(CCN1C)[C@H]2O5` (stereo partly specified) has an EC50 [1] of 210 nM, a Ki [2] of 28 nM and an EC50 [3] of 21 nM. For the same compound, the Ki [4] was 64 nM.

`CO[C@]12CC(O)[C@@]3(C[C@@H]1[C@@H](C)O)[C@H]1Cc4ccc(O)c5c4[C@@]3(CCN1C)[C@H]2O5` (stereo partly specified) gave an EC50 [1] of 720 nM, a Ki [2] of 120 nM and an EC50 [3] of 57 nM. The Ki [4] was 230 nM.
